Only a part is listed here, and it is no random draw. Inconclusive results are not listed. The source made the active and inactive calls. Calls follow the shape of the dose curve; as a rule, active = well fitted inhibition curve with a large enough effect; inconclusive = small, poorly fitted or top-dose-only effect, or another doubt; inactive = no such curve, though single readings can be large or run the other way.
target: Histone acetyltransferase KAT2A (Homo sapiens) (UniProt Q92830); test: qHTS Assay for Inhibitors of GCN5L2; details: GCN5L2 HAT assay, ThioGlo1 CoA-SH fluorescence
Excerpt: Histone acetyltransferase (HAT) enzymes transfer a […] group from acetyl-coenzyme A to the epsilon-amino group of conserved lysine residues of N-terminal histone tails. Acetylation results in charge neutralization of this positively charged amino acid, decreasing interactions with the […] backbone and making the DNA more accessible for transcription. HATs have been recognized as an emerging drug target for treatment of cancer, diabetes, asthma, chronic obstructive pulmonary disease, cardiac disease, and viral infection. […]
A quantitative high throughput screen was developed to identify small molecule inhibitors. […]
[2] Yasgar, et al. Compound Management for Quantitative High-Throughput Screening. […]
[3] Inglese, et al. Quantitative high-throughput screening: a titration-based approach that efficiently identifies biological activities in large chemical libraries. […]
To each well of a 1,536w plate, 3ul of GCN5L2 (final concentration 20nM, in 50mM HEPES, 0.1mM EDTA (pH 7.5), 0.01% Tween-20 buffer) are added using a Kalypsys dispenser. […] Plates are read immediately on the ViewLux (PerkinElmer) (Ex340nm/Em540nm) for a 0 min read, incubated for 20 min at room temperature, and read again on the ViewLux with the same settings. The initial read was carried out to identify compounds that are potentially fluorescent.
Potency is read from the fitted curve at half-maximal effect.

The chains behind the UniProt entries cited, without tags or fusion partners.
UniProt Q92830, whole entry, looked up: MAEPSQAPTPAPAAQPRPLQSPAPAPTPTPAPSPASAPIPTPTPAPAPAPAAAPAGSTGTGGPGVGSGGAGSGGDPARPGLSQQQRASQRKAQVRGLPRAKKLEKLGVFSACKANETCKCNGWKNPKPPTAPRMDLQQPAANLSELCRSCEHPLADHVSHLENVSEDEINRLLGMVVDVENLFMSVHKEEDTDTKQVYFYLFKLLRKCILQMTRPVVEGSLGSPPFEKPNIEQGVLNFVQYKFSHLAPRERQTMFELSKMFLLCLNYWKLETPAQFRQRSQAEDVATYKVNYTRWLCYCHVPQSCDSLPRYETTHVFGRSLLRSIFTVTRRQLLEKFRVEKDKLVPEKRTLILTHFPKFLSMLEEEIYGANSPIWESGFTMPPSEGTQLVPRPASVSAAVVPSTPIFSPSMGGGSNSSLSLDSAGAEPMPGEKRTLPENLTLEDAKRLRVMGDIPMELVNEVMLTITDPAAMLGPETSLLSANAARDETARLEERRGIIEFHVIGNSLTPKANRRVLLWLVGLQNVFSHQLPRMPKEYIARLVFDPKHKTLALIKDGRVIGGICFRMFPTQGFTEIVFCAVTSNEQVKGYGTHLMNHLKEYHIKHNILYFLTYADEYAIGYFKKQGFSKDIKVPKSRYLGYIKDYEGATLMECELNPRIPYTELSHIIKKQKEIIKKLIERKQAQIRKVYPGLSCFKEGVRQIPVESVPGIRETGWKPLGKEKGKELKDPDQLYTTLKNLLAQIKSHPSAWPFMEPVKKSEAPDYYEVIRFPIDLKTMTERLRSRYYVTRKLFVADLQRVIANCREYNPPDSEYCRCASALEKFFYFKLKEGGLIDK

SMILES | Potency
CC(CCC(C)C(C)(C)C)[C@@H]1CC[C@H]2C3C[C@H](OS(O)(=S)=S)[C@H]4C[C@H](OS(O)(=S)=S)[C@@H](OS(O)(=S)=S)C[C@]4(C)[C@H]3CC[C@]12C (some centres not stated) (tested in a mixture with another compound) | active: 2.82 µM
COc1ccc(Nc2nc(Nc3ccc(OC)cc3)nc(SC3=NCCS3)n2)cc1 | active: 35.5 µM

Source: PubChem BioAssay AID504327 (National Center for Advancing Translational Sciences (NCATS), 2011)
